We go through eleven compounds from PubChem BioAssay AID1963576 (National Center for Advancing Translational Sciences (NCATS), 2024).

This is a selection; strong and weak results do not stand in their true shares. Some of these compounds have results that are not shown, active ones among them. Results filed as inconclusive are left out. The source made the active and inactive calls. Calls come from the whole dose curve; as a rule, active = well fitted inhibition curve with a large enough effect; inconclusive = small, poorly fitted or top-dose-only effect; inactive = no such curve, though single readings can be large or run the other way.

The nature of this test: Primary qHTS assay for Inhibitors of ovarian cancer metastasis using an organotypic tumor microenvironment (TME) model. Note: nearly all actives have a fitted effect of over 65% in size. Particulars: SKOV3ip1-GFP adhesion/invasion on 3D omental model, fluorescence; activity change, negative = inhibition: at 45.8 µM (top of the series). An excerpt: PI: Ernst Lengyel MD., Ph.D. Department of Obstetrics and Gynecology, Section of Gynecologic Oncology University of Chicago Medicine, Chicago, Illinois. The tumor microenvironment (TME) is a key determinant of metastatic efficiency. We performed a quantitative high-throughput screen (qHTS) of diverse medicinal chemistry tractable scaffolds (44,420 compounds) and pharmacologically active small molecules (386 compounds) using a layered organotypic, robust assay representing the ovarian cancer metastatic TME. This 3D model contains primary human mesothelial cells, fibroblasts, and extracellular matrix, to which fluorescently labeled ovarian cancer cells are added. Initially, 100 compounds inhibiting ovarian cancer adhesion/invasion to the 3D model in a dose-dependent manner were identified. Of those, eight compounds were confirmed active in five high-grade serous ovarian cancer cell lines and were further validated in secondary in vitro and in vivo biological assays. […] Specifically, NCGC00117362 and PP-121 inhibited ovarian cancer adhesion, invasion, and proliferation, whereas milciclib inhibited ovarian cancer invasion and proliferation. […] To evaluate the clinical potential of NCGC00117362, structure - activity relationship studies were performed. […] The three compounds identified have promise as therapeutics for prevention and treatment of ovarian cancer metastasis.
PROTOCOL TABLE (as described by Inglese J, Shamu CE and Guy RK. 2007) SEQUENCE No. (e.g., 1, 2, 3, etc.); […] (e.g., Cells, Incubation, Reagent, etc.); VALUE; DESCRIPTION. 1; Cells; 4 uL; primary human omental fibroblast, black, clear bottom, low base, 1536-well Aurora assay plate. 2; Incubation; 48 hr; 37C. 3; Cells; 3 uL; 1,200 SKOV3ip1-GFP cells. 4; Compounds; 23nL; acoustic dispenser. 5; Incubation; 2 hr; room temperature. 6; Incubation; 16 hr; 37C. 7; Wash; 5 uL; 1x PBS. 8; Fixing; 5 uL; 4% paraformaldehyde (PFA). 9; Incubation; 15 min; room temperature 10; Wash, 5 uL; 1x PBS. 11; Detection; Fluorescence, excitation filter 488 nm, emission filter 509 nm. NOTES (numbers refer to Sequence numbers above) 1. For the 1,536-well format, 40 primary human omental fibroblasts and 400 mesothelial cells were seeded with 0.02 µg fibronectin and 0.02 µg collagen type I in 4 µL of growth media (2.3 mm2; Supplementary Fig. S1A). 2. Assay plates were incubated for 48 hours at 37 C. 3. After incubation, 1,200 SKOV3ip1-GFP were seeded in 3 µL of serum-free media (growth media minus FBS) on top of primary human omental cells. 4. Compounds or controls were added to each well immediately after the addition of the cancer cells. Compounds were screened in four doses (0.36-46 µmol/L), and the plates contained the positive control (Tomatine) in eight doses (0.035-75 µmol/L) and DMSO (equal volume controls) 5 - 6. The plates were incubated at room temperature for 2 hours and then at 37 degrees C for 16 hours. 7 - 10. Following incubation, the media were aspirated and each well washed with PBS (5 µL) and then fixed with 4% paraformaldehyde (PFA; 5 µL). After 15 minutes, the PFA solution was aspirated, PBS (5 µL) was added. 11. The number of GFP-labeled cells analyzed using a fluorescent cytometer TTP LabTech Acumen eX3 using 488 nm excitation filter and 509 nm emission filter. Data was normalized to the DMSO treated for negative and Tomatine treated wells for positive control. REFERENCES: Inglese J, Shamu CE and Guy RK, Reporting data from high throughput screening of small molecule libraries, Nature Chemical Biology, 2007, 3(8): 438-441. doi.org/10.1038/nchembio0807-438. Yasgar A, Shinn P, Jadhav A, Auld DS, Michael S, Zheng W, Austin CP, Inglese J and Simeonov A, Compound Management for Quantitative High-Throughput Screening. J. Assoc. Lab. Auto., 2008, 13: 79-89. doi: 10.1016/j.jala.2007.12.004.
For orientation: Quantitative high-throughput screening tests each substance at several concentrations.
As for `CCCCOc1ccccc1C(=O)NCC1(N(C)C)CCCCC1`, the activity change, negative = inhibition was inactive: -8.88%. With `CN(C)C1(CNC(=O)c2ccccc2[N+](=O)[O-])CCCCC1`, the activity change, negative = inhibition result was “inactive”. As to `CCOc1cccc(C(=O)NCC2(N(C)C)CCCCC2)c1`, the activity change, negative = inhibition result is “inactive”. For `CN(C)C1(CNC(=O)c2ccccc2F)CCCCC1`, the activity change, negative = inhibition was inactive: 8.3%. With `CN(C)C1(CNC(=O)c2cccc(Cl)c2)CCCCC1` the figure was inactive: 5.93%. For the compound `CC(C)COc1ccc(C(=O)NCC2(N(C)C)CCCCC2)cc1`, the activity change, negative = inhibition is inactive: 1.19%. With `COc1cccc(C(=O)NCC2(N3CCOCC3)CCCCC2)c1` the entry was “inactive”; with `CC(C)Oc1ccc(C(=O)NCC2(N(C)C)CCCCC2)cc1`, inactive: 11.1%; with `COc1cc(C(=O)NCC2(N(C)C)CCCCC2)cc(OC)c1OC`, inactive: -30.1%. On to `Cc1cccc(C(=O)NCC2(N(C)C)CCCCC2)c1`, for which the activity change, negative = inhibition was inactive: 3.32%. On to `COc1ccc(C(=O)NCC2(N(C)C)CCCCC2)cc1Cl`, for which the activity change, negative = inhibition is inactive: -0.792%.
